Results from the NIST ThermoML archive (doi:10.1016/j.fluid.2014.04.003).

Assay: Molar enthalpy of transition or fusion
Conditions: Crystal; DSC

Which “Molar enthalpy of transition or fusion” value does the source give for `CC(C)Cc1ccc([C@H](C)C(=O)O)cc1.CCCCCCCCNC[C@H](O)[C@@H](O)[C@H](O)[C@H](O)CO` [S-ibuprofen n-octyl-d-glucamine salt] here?
Its value is 16.2 ± 0.454 kcal/mol.

Numbers after ± are expanded uncertainties.
